Measurements from patent US20090074876A1, “PEPTIDE COMPOSITION AND A METHOD OF PROMOTING CARTILAGE FORMATION” (Acologix, Inc., priority 2007, published 2009).

System: human mesenchymal stem cells (hMSC)
Test: proliferation assay with human mesenchymal stem cells, tritiated thymidine incorporation
Assay type: cell-based
Conditions: as compared to the vehicle
Method: The peptide of SEQ ID NO:34 was tested for its proliferation activity on human mesenchymal stem cells as compared to CMP-2 and IGF-1.
The same protocol and positive controls were used in this experiment.
SEQ ID NO:34 was selected for this experiment since the amino acid sequence of this peptide was derived from the corresponding region in rat and mouse MEPE where AC-100 was derived from human MEPE. Furthermore, as compared to all other known mammalian corresponding regions to AC-100, it is the least homologous to AC-100 (the human sequence).
The degree of activities was very similar among these three materials.

B1: BMP-2: Bone Morphogenetic Protein-2, positive control in hMSC proliferation assay (protein, UniProt P12643 283-396, looked up)
Bone morphogenetic protein 2: QAKHKQRKRLKSSCKRHPLYVDFSDVGWNDWIVAPPGYHAFYCHGECPFPLADHLNSTNHAIVQTLVNSVNSKIPKACCVPTELSAISMLYLDENEKVVLKNYQDMVVEGCGCR
proliferation activities of the hMSC by tritiated-thymidine incorporation: Significant proliferation activities
